Values quoted from earlier work, collected in patent US11633458B2, “Compositions and methods for treating melanoma” (University of Virginia Patent Foundation, priority 2013, dated 2023).

Test system: pancreatic cancer
Conditions: phase I/II clinical trials, intratumoral; cited from earlier work

macrophage-activating lipopeptide 2 [MALP-2]
dose administered intratumorally safely: up to 20 μg
